High-throughput results deposited in PubChem by Broad Institute.
FGF22 binding = shifts melting point of recombinant human FGF22 | 340,000 compounds, 1.5% hits | recombinant FGF22 thermal shift, SYPRO orange fluorescence; percent of sucrose octasulfate shift, DMSO zero | Q9HCT0 | AID 651658 | activity (Tm shift, normalised), % at 9.99 µM;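 active = mean Tm shift, scaled 0 neutral to 100 positive control, at about 1.3% or above, every replicate too, limit read from the data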
ERp5 inh = inhibitors of human ERp5; ERp5 insulin aggregation, absorbance 650 nm, 90 min; inhibition, % at 9.99 µM; 350,000 compounds, 0.05% hits;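 active = mean replicate inhibition above about 25%, with every replicate also reaching it, limit read from the data, passing the limit was not always enough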
ARNT TACC3 PPI = disrupts binding between human ARNT and TACC3 | inhibition, % at 9.99 µM | AID 623870 | AlphaScreen His-ARNT PAS-B/GST-TACC3 binding, luminescence; TACC3 fragment carries E629A point mutation | Q9Y6A5 | 390,000 compounds, 0.66% hits;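 active = mean inhibition of replicates at least 50% and at least half of replicates each reaching 50%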;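 also: 0% = complete ARNT plus TACC3 wells and 100% = ARNT alone without TACC3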
PglD inh = blocks C. jejuni PglD acetyltransferase activity; AID 602405; inhibition, % at 12.5 µM; 360,000 compounds, 0.098% hits; purified PglD enzyme, DTNB colorimetric CoA detection; in the data active = inhibition above about 16%, passing the limit was not always enough
PDI turbidity = inhibitors of human protein disulfide isomerase; P07237; PDI insulin aggregation turbidity, A650, 90 min; inhibition, % at 10 µM; 350,000 compounds, 0.052% hits;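 active = mean inhibition across replicates of 30% or more, whatever share of single replicates reach that level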
UUG fidelity = modulators of start codon recognition fidelity in yeast; AID 602363; activity score, % at 18.7 µM; S. cerevisiae UUG-firefly luciferase reporter, luminescence/redox ratio; actives 0.13% (n = 350,000);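 active = replicate mean at a twofold rise or more, about +100% in these data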;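 note: firefly luciferase made from a UUG start codon reports start codon fidelity; reporter light over untreated wells divided by growth signal over untreated wells; some hits fall short of that in this replicate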
* = called active by the depositor; nt = no result given. Rows were chosen to be rich in hits. Some 1.9% of all compounds tested hit in one or more screens of this group.

nr | structure | FGF22 binding | ERp5 inh | ARNT TACC3 PPI
1 | O=c1c2ccccc2ncn1Cc1cccc2ccccc12 | 43* | -13 | 25
2 | CN(C)CC#Cc1ccc([C@H]2[C@H](CO)N3CCCCN(C(=O)C4CC4)C[C@@H]23)cc1 | nt | nt | -8
3 | CCOc1ccc(NC(=S)N(Cc2ccc(N(C)C)cc2)Cc2ccco2)cc1 | 0 | 2 | 17*
4 | COc1ccc(NC(=S)N(Cc2ccc(N(C)C)cc2)Cc2ccco2)cc1 | nt | nt | 10
5 | Cc1nn(C)c2c1NC(=O)CS2 | 43* | -11 | nt
6 | Cn1ccc(/C=N/N=C2/NC(=O)CS2)n1 | 0 | 6 | 3
7 | O=C(CSc1n[nH]c(-c2ccccc2)n1)NCc1cccc(C(=O)O)c1 | 43* | 1 | -10
8 | COc1ccc(C2=Nn3c(nnc3-c3ccccn3)SC2)cc1OC | nt | nt | 83*
9 | CC(C)(C)C1=Nn2c(nnc2-c2ccccc2F)SC1 | 0 | -2 | -10
10 | COc1ccc(C2=Nn3c(nnc3-c3ccccc3OC)SC2)cc1OC | nt | nt | 18

nr | PglD inh | PDI turbidity | UUG fidelity
1 | nt | 5 | nt
2 | -3 | nt | -7
3 | nt | 12 | nt
4 | 0 | -4 | -27
5 | 1 | -4 | -45
6 | -6 | -3 | -4
7 | nt | -2 | nt
8 | 4 | -4 | -21
9 | 3 | -1 | -19
10 | 5 | 2 | -25

(more compounds)
nr | structure | FGF22 binding | ERp5 inh | ARNT TACC3 PPI
11 | CC(C)(C)C1=Nn2c(nnc2-c2ccccn2)SC1 | nt | nt | 72*
12 | O=C(Nc1ccc(Cl)c(Cl)c1)N[C@@H]1CC[C@H](CCn2cc(C3CCCCC3)nn2)O[C@@H]1CO | 0 | 3 | -12
13 | C[C@@H]1CN([C@H](C)CO)C(=O)c2cc(NC(=O)c3ccccc3)ccc2O[C@@H](C)CCCCO[C@@H]1CN(C)C(=O)c1ccccc1 | 1.4* | nt | nt
14 | C[C@@H]1CCCCO[C@@H](CN(C)C(=O)c2ccccc2)[C@@H](C)CN([C@H](C)CO)C(=O)c2cc(NC(=O)c3ccccc3)ccc2O1 | 1 | 3 | 1
15 | C[C@@H]1CCCCO[C@H](CN(C)C(=O)c2ccccc2)[C@H](C)CN([C@@H](C)CO)C(=O)c2cc(NC(=O)Nc3ccc(F)cc3)ccc2O1 | 1.3* | 1 | 9
16 | C[C@@H]1CN([C@@H](C)CO)C(=O)c2cc(NC(=O)Nc3ccc(F)cc3)ccc2O[C@@H](C)CCCCO[C@H]1CN(C)C(=O)c1ccccc1 | 1 | -1 | 5
17 | COc1ccc(NC(=O)Nc2ccc3c(c2)C(=O)N([C@H](C)CO)C[C@@H](C)[C@H](CN(C)Cc2ccncc2)OCCCC[C@@H](C)O3)cc1 | 0 | 3 | -8
18 | C[C@@H]1CN([C@H](C)CO)C(=O)Cc2cc(NS(=O)(=O)c3cn(C)cn3)ccc2O[C@H]1CN(C)Cc1ccncc1 | 0 | 0 | -4
19 | Cc1noc(C)c1NC(=O)N(C)C[C@H]1Oc2c(NS(=O)(=O)c3ccccc3)cccc2C(=O)N([C@H](C)CO)C[C@@H]1C | 0 | 2 | nt
20 | CCOc1ccccc1CNC(c1ccccc1)c1ccccc1 | 0 | 1 | -18

nr | PglD inh | PDI turbidity | UUG fidelity
11 | nt | -5 | -8
12 | -4 | nt | -12
13 | 3 | nt | nt
14 | -2 | nt | nt
15 | 7 | nt | 0
16 | 4 | nt | -3
17 | 1 | nt | 3
18 | 6 | nt | 6
19 | nt | nt | nt
20 | -2 | 6 | -11

Later entries:
nr | structure | FGF22 binding | ERp5 inh | ARNT TACC3 PPI
21 | CCOc1ccccc1CNC(CC)CO (stereo not given) | 43* | 2 | -10
22 | COCCNC(=O)/C(C#N)=C/c1ccc(O)c([N+](=O)[O-])c1 | 43* | 3 | -7
23 | S=c1cnc2ccccc2[nH]1 | 43* | -4 | 1
24 | COC(=O)c1cc(C#N)c(OC)nc1C | 43* | 3 | -6
25 | Cc1cc(/C=N/NC(=O)c2ccsc2)c(C)n1-c1cnccn1 | 44* | -2 | 12
26 | COc1ccccc1C(=O)COC(=O)CN1C(=O)NC2(CCCC2)C1=O | 0 | -1 | -3
27 | Cc1cc(C)c(C(=O)COC(=O)CN2C(=O)NC3(CCCC3)C2=O)cc1C | 43* | -4 | 0
28 | COCC(=O)N1CCC2(CC1)CN[C@@H](CO)c1c2c2ccc(OC)cc2n1C | nt | 3 | nt
29 | c1ccc2nc(-c3nccs3)ccc2c1 | 44* | 1 | -10
30 | Clc1ccsc1-c1ccc2ccccc2n1 | nt | nt | -6
31 | O=C(c1ccc([N+](=O)[O-])cc1)N1CCSC1c1ccc(Cl)cc1 (stereo not given) | 43* | -8 | 4

nr | PglD inh | PDI turbidity | UUG fidelity
21 | nt | -2 | nt
22 | nt | -1 | nt
23 | nt | 9 | nt
24 | nt | -4 | nt
25 | nt | -8 | nt
26 | nt | -2 | nt
27 | 0 | 0 | -13
28 | nt | nt | nt
29 | nt | -3 | nt
30 | 2 | 7 | -20
31 | nt | 20 | nt

Grouped by structure: those above with fluorine.
nr | structure | FGF22 binding | ERp5 inh | ARNT TACC3 PPI
9 | CC(C)(C)C1=Nn2c(nnc2-c2ccccc2F)SC1 | 0 | -2 | -10
15 | C[C@@H]1CCCCO[C@H](CN(C)C(=O)c2ccccc2)[C@H](C)CN([C@@H](C)CO)C(=O)c2cc(NC(=O)Nc3ccc(F)cc3)ccc2O1 | 1.3* | 1 | 9
16 | C[C@@H]1CN([C@@H](C)CO)C(=O)c2cc(NC(=O)Nc3ccc(F)cc3)ccc2O[C@@H](C)CCCCO[C@H]1CN(C)C(=O)c1ccccc1 | 1 | -1 | 5

nr | PglD inh | PDI turbidity | UUG fidelity
9 | 3 | -1 | -19
15 | 7 | nt | 0
16 | 4 | nt | -3
